Assays:
[1] = biological target: eIF4E Ser209Ala (knock-in, 4Eki mice) (mouse (endogenous in forebrain)) (UniProt P63073); experiment: pull-down; cap-column pulldown: 500 ug forebrain lysate protein with 50 ul m7GDP agarose in buffer C (50 mM MOPS-KOH pH 7.4, 100 mM NaCl, 50 mM NaF, 0.5 mM EDTA, 0.5 mM EGTA, 0.1 mM GTP), 90 min at 4 C; eIF4E held by its ligand m7GDP; cap-bound fraction immunoblotted and quantified, normalised to input
[2] = biological target: eukaryotic Initiation Factor 4E (eIF4E), wild type (mouse (endogenous in forebrain)) (UniProt P63073); experiment: as above

Substance: ribosomal protein rpL13a (from UniProt P19253 1-203) (natural protein)
- cap-bound protein (arbitrary units, normalised to input) (arbitrary units) [1]: 0.487

Substance: ribosomal protein rpL13a (from UniProt P19253 1-203) (natural protein; other documents disagree on this pair)
- cap-bound protein (arbitrary units, normalised to input) (arbitrary units) [2]: 0.998
